# Assay results: PubChem BioAssay AID1979 (Broad Institute, 2009)
# This is a selection; strong and weak results do not stand in their true shares. The source made the active and inactive calls.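 How the source made its calls: active means growth inhibition above about 58% in most replicates (limit read from the data, passing the limit was not always enough); inconclusive means exactly half the replicates above a set limit; inactive means most replicates below a set limit.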
# Assay: Candida growth reduction under fluconazole – CaCi-2 strain, Alamar Blue fluorescence, primary screen (AID 1979);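 further: all wells also contain fluconazole at 8 µg/ml as a sub-toxic cotreatment; 0% = median of DMSO wells and 100% = median of geldanamycin control wells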
# Details: C. albicans CaCi-2 (fluconazole-resistant clinical isolate) + fluconazole, 48 h, hits give high values, concentration not given here
row,SMILES,growth inhibition
1,O=P1(Nc2ccccn2)COc2ccccc2OC1,inactive: -2.57%
2,CCC1=CC2Cc3nc4ccc(Cl)cc4c(N)c3C(C1)C2 (configuration not stated),inactive: 5.75%
3,CCOP(=O)(NC(=NC(C)c1ccccc1)NC(C)c1ccccc1)OCC (configuration not stated),inactive: 7.2%
4,O=[N+]([O-])c1cc([N+](=O)[O-])c(-n2nnc3ccccc32)c([N+](=O)[O-])c1,inactive: 20.7%
5,Clc1n[nH]nc1-c1nn[nH][15n]1,inactive: 1.1%
6,CC(C)(C)C(=O)NC(Sc1ncccn1)C(Cl)(Cl)Cl (configuration not stated),inactive: 3%
7,COc1ccccc1CNC(=O)COC(=O)C(O)(c1ccccc1)c1ccccc1,inactive: 2.25%
8,O=[N+]([O-])c1cc([N+](=O)[O-])c(-c2cnn(-c3ccccc3)c2)c([N+](=O)[O-])c1,inactive: -2.01%
9,CC1(CBr)Cn2c(nc3ccccc3c2=O)S1 (configuration not stated),inactive: -6.14%
10,CC(C)/C=N\N=C(\N)N[N+](=O)[O-],inactive: -6.89%
11,COc1cc(C2NCCC3(OCCO3)C2(C)C)cc(OC)c1OC.O=[N+]([O-])c1cc([N+](=O)[O-])c(O)c([N+](=O)[O-])c1 (configuration not stated),inactive: 1.69%
12,Cc1nn(-c2ccccc2)c2c1P(=O)(N1CCOCC1)N(C)C(c1ccccc1)=N2 (configuration not stated),inactive: 15.5%
13,CC1CCC(C(C)C)C(OP(=O)(Nc2ccccn2)c2ccccc2)C1 (configuration not stated),inactive: 15.5%
14,Cc1ccc(C(=O)OC2CN3CCC2CC3)cc1 (configuration not stated),inactive: -9.31%
15,O=C(/C=C/c1ccccc1)OC1CN2CCC1CC2 (configuration not stated),inactive: 0.0133%
16,O=[N+]([O-])c1cc([N+](=O)[O-])c(Nc2nnnn2CCO)c([N+](=O)[O-])c1,inactive: -4.6%
17,CN(C)C1(CNC(=O)c2ccc(S(C)(=O)=O)cc2)CCCCC1,inactive: 8.62%
18,CCOC(=O)C(CC)C1=NC(C)(C)Cc2ccccc21.O=[N+]([O-])c1cc([N+](=O)[O-])c(O)c([N+](=O)[O-])c1 (configuration not stated),inactive: -3.56%
19,O=P1(Nc2ncccn2)COc2ccccc2OC1,inactive: -9.13%
20,COc1ccccc1OP(C)(=O)Nc1c(C)cccc1C (configuration not stated),inactive: -14.3%
21,CN1CCCCC1COC(=O)C1(O)c2ccccc2CCc2ccccc21 (configuration not stated),inactive: -28.4%
22,O=P1(Nc2ccc(Br)cn2)COc2ccccc2OC1,inactive: 13.1%
23,O=[As](O)(c1cccs1)c1cccs1,inactive: -1.31%
24,Cc1ccc(OCC(=O)OC2CN3CCC2CC3)cc1 (configuration not stated),inactive: -5.22%
25,CP(=O)(Nc1ccc(SC(F)(F)F)cc1)Oc1ccccc1 (configuration not stated),inactive: -7.71%
26,Nc1cccc([As](=O)(O)c2ccccc2)c1,inactive: -3.5%
27,CCCOc1ccc(NP(C)(=O)Oc2ccc(Cl)cc2)cc1 (configuration not stated),inactive: -2.73%
